Here are results for 1 compound from ChEMBL document CHEMBL4011581, “Interference with bile salt export pump function is a susceptibility factor for human liver injury in drug development” (Toxicol Sci, 2010).

The assay addresses Bile salt export pump (Homo sapiens, UniProt O95342). Format: ADME.

Some results are limits rather than exact numbers.

Turning to `CCN(CC)CC(=O)Nc1c(C)cccc1C` [LIDOCAINE], the IC50 is over 135 µM.
